Target: Adenosine receptor A1 (Rattus norvegicus, UniProt P25099)

Chains of the proteins cited; added tags and fusions are not shown.
UniProt P25099, whole entry: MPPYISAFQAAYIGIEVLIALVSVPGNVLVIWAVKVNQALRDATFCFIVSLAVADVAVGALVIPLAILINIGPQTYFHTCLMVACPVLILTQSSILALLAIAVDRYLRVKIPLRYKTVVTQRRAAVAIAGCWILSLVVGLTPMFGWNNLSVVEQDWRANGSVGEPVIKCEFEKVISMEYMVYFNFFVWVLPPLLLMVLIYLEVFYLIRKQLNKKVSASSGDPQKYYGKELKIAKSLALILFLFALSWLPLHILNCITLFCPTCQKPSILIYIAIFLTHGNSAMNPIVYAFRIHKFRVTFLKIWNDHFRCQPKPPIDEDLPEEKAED

A Ki of 5.1 nM was found for `OC[C@H]1O[C@@H](n2cnc3c(NCC4c5ccccc5-c5ccccc54)ncnc32)[C@H](O)[C@@H]1O` in this work.
